Values quoted from earlier work in patent US9611289B2, “Farnesoid X receptor modulators” (Intercept Pharmaceuticals, Inc., priority 2013, dated 2017).

Sequences of proteins named here, by UniProt entry; tags and fusion partners are left off. A change or cut given only in a name is not applied to a line headed by its entry.
UniProt Q12809: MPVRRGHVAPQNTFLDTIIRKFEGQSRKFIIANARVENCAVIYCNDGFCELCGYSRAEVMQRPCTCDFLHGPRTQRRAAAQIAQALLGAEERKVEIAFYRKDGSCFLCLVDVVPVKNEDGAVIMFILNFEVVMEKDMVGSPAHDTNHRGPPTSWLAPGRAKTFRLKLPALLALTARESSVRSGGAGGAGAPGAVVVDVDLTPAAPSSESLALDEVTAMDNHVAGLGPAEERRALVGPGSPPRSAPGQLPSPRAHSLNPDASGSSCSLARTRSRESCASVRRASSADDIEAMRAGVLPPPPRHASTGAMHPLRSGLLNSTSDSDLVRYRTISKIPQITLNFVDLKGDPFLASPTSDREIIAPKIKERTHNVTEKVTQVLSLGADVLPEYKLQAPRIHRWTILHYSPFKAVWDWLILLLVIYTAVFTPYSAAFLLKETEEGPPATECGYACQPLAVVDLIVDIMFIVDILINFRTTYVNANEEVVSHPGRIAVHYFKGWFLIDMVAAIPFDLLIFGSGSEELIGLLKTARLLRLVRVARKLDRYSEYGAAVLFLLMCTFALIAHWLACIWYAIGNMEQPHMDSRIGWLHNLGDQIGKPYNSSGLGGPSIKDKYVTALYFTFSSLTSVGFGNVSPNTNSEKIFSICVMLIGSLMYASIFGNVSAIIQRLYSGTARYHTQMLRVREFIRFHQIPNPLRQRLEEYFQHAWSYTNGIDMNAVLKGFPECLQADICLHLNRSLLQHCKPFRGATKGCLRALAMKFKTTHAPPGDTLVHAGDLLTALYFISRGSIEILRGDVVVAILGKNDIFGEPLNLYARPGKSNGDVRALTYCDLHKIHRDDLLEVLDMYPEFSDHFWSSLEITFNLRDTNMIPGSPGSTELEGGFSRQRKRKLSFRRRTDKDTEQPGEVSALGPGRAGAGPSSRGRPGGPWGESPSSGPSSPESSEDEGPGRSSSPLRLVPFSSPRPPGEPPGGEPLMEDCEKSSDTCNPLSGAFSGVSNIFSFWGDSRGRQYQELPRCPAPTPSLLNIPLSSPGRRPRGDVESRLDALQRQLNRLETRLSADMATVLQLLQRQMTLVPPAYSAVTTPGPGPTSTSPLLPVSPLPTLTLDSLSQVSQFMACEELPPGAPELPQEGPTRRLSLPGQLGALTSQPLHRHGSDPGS

Columns and labels:
hERG channel = hERG channel (Homo sapiens, UniProt Q12809); conditions: reported values; read-out: Radioligand* IC50; cited from earlier work
hERG potassium channel = hERG potassium channel (Homo sapiens, UniProt Q12809); conditions: Table 6 assay validation (Dorn et al. 2005); read-out: FP IC50; cited from earlier work

In the case of `CC(C)COCC(CN(Cc1ccccc1)c1ccccc1)N1CCCC1` (centres unmarked) [Bepridil], the IC50 (hERG channel) is listed as 170 nM and the IC50 (hERG potassium channel) is listed as 210 nM.
